Assay outcomes as filed in PubChem BioAssay.
TSHR antagonist = Antagonists of the Thyroid Stimulating Hormone Receptor: HTS campaign. AID 504810, 2011. activity change, negative = inhibition, % at 11.5 µM. 330,000 tested, 0.2% active. TSHR-expressing cells, TSH-stimulated cAMP HTRF, 2 h; active compounds read low. Thyrotropin receptor (Homo sapiens), P16473;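 active = activity change below a set negative limit, meaning inhibition stronger than a set level, cut at about -70% in these data; inconclusive = activity change between two set negative limits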; also: % is scaled to controls: 0 for no effect and ±100 for the full control effect
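TSHR-expressing cells were treated with compounds, then stimulated with TSH at EC80 (4nM final) for 2 hours at 37 deg C. Cellular cAMP was measured by HTRF competition between lysate cAMP and cAMP-d2 for a cryptate-labelled anti-cAMP antibody.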
Rango dissoc inh = qHTS Assay for Inhibitors of RanGTP induced Rango (Ran-regulated importin-beta cargo) - Importin beta complex dissociation | Biochemical FRET Rango-importin beta, RanGTP-induced dissociation | Potency, µM (doses to about 46.1 µM), for the others: at the top dose activity change, negative = inhibition | 340,000 tested, 0.071% active; also: potency is read from the fitted curve at half-maximal effect; % of control where 0% means no effect; nearly all actives have a fitted effect of over 45% in size
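Compounds sat 5 min at room temperature with 0.1 uM Rango biosensor plus 0.25 uM importin beta, then FRET pre-read. RanGTP-RCC1 (0.6 uM Ran, 2mM GTP, 0.2 uM RCC1) added for 45 min, and the CFP/YFP post-read measured blocked complex dissociation.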
Rango-impB inh = qHTS Assay for Inhibitors of Rango (Ran-regulated importin-beta cargo) - Importin beta complex formation. Importin subunit beta-1 (Homo sapiens), Q14974. Rango CFP/YFP FRET sensor + importin beta, 45 min. Potency, µM (highest dose often 92.2 µM), without a hit: at the top dose inhibition of complex formation. 340,000 tested, 0.031% active. AID 540263, 2011;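 also: potency is read from the fitted curve at half-maximal effect; 0% = DMSO wells and 100% = buffer wells lacking importin beta; nearly all actives have a fitted effect of over 15% in size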
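FRET biosensor (snurportin 1 IBB flanked by EYFP and cerulean), 50 nM, with compound 5 min, then 0.125 microM importin beta in PBS, 1 mM DTT, 0.02% Tween-20, 0.1% BSA. CFP/YFP ratio read after 45 min at room temperature; pre-read flags interference.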
Akt phos inh = HTS Assay for Inhibitors of Akt Phophorylation: Primary Screen; activity change, % for hits at 50 µM; AID 651550, 2012; 360,000 tested, 0.32% active; Neuro2A IGF-stimulated pAkt S473 HTRF, 20 min; active compounds read low; in the data active = activity change below about -80%; inconclusive = mostly about -51% to -80%; also: % is scaled to controls: 0 for no effect and ±100 for the full control effect
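Single-point screen (50 µM final compound) in Neuro2A cells stimulated 20 min with 6 nM IGF at 37 deg C. After lysis, Ser473-phosphorylated Akt read by HTRF (ex 330 nm, em 615/665 nm) as the 665/615 ratio.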
p53 reactivator = qHTS assay for re-activators of p53 using a Luc reporter. H1299 p53-A138V BP100-luciferase reporter, luminescence, 24 h. Potency, µM (titrated, usually from 92.2 µM), for inactives: at the top dose activity change, positive = activation, actives largely listed as activators. 320,000 tested, 0.063% active. AID 504706, 2011; active = well fitted activation curve with a large enough effect; inconclusive = small, poorly fitted or top-dose-only effect; inactive = no such curve, though single readings can be large or run the other way; also: potency is read from the fitted curve at half-maximal effect; % of control where 0% means no effect; nearly all actives have a fitted effect of over 45% in size
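H1299 (p53-null), stable ts p53-A138V + BP100-Luc; 1000 cells/well, Opti-MEM/10% FBS; cpd 4 pt, 1:5; 24 h, 37 deg C, 5% CO2; detection reagent 10 min RT; luminescence.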
* marks the source's active call; other numbers are inactive results; i = inactive; ? = inconclusive; / = not tested or not shown. Compounds with a hit are over-represented: about 0.62% of the library has one in this group of screens. Unless noted, calls follow the shape of the full dose curve.

Chains of the proteins cited; added tags and fusions are not shown.
Thyrotropin receptor (Homo sapiens), P16473, UniProt P16473, whole entry, looked up: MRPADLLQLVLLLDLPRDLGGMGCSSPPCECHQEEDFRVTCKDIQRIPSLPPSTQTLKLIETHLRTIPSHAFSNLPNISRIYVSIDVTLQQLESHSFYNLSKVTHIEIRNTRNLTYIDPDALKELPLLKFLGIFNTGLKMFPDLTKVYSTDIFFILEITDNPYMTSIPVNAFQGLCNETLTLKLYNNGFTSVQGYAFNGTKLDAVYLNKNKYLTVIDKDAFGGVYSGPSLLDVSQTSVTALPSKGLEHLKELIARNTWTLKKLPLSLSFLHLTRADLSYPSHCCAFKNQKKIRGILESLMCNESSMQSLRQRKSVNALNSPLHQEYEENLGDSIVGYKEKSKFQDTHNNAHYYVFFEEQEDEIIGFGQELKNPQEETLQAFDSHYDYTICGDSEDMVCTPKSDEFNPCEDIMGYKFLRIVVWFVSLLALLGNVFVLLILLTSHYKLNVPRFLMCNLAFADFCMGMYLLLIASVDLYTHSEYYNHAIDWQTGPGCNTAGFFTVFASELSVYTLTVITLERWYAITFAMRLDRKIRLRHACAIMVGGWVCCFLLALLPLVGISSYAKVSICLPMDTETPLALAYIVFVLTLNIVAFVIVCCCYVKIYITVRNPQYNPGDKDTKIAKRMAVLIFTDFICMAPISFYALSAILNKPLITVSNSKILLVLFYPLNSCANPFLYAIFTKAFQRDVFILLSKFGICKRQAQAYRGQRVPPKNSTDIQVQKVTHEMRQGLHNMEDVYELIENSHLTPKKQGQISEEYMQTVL
Importin subunit beta-1 (Homo sapiens), Q14974, UniProt Q14974, whole entry, looked up: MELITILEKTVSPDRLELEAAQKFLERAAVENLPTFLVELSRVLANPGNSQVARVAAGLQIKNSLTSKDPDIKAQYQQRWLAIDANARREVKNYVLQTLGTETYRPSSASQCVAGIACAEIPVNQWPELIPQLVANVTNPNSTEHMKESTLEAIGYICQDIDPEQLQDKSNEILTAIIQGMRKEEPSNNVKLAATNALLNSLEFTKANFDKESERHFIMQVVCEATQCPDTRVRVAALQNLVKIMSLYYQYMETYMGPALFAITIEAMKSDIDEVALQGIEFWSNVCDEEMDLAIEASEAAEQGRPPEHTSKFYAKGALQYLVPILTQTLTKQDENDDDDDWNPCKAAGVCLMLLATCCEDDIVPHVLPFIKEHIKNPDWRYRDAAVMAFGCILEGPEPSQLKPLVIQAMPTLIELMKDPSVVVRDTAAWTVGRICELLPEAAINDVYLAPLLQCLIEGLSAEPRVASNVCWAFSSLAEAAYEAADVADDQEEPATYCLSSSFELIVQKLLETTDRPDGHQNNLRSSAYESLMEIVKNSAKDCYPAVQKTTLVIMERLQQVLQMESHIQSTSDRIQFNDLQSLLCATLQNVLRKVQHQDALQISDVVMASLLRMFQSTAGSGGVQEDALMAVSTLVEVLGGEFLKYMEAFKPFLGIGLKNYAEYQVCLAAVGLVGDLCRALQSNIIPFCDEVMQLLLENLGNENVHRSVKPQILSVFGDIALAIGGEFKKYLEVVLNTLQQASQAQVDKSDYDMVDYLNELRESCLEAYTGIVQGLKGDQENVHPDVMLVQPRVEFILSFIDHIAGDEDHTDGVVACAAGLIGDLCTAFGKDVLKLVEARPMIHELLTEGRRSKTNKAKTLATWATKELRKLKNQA

1: CN1CC(c2ccccn2)C2(SC(=S)N(Cc3ccccc3)C2=O)C12C(=O)Nc1ccccc12 (configuration not stated)
2: CC(=O)Nc1ccc2[nH]c3ccccc3c2c1
3: O=C(Nc1ccc(Cl)cc1)c1cc2c(cc1O)[nH]c1ccccc12
4: Cn1cccc1C1CCCN1CC(=O)Nc1ccc(F)c(F)c1F (configuration not stated)
5: COC(=O)c1cc(-c2c[nH]c3ccccc23)n[nH]1
6: COC(=O)c1cc(-c2ccc(Br)cc2)n[nH]1
7: O=C(O)CCC(=O)N1CCN(S(=O)(=O)c2ccc3ccccc3c2)CC1
8: O=C(Cn1ncc(Cl)c(Cl)c1=O)N1CCN(S(=O)(=O)c2ccc3ccccc3c2)CC1
9: CCOP(=O)(c1c(F)c(F)c(F)c(F)c1F)C(O)c1ccccc1 (configuration not stated)
10: On1cnnc1-c1ccccc1

entry no.,1,2,3,4,5,6,7,8,9,10
Akt phos inh,-83.8%*,i,i,i,i,i,i,i,-115.6%*,-90.6%*
Rango dissoc inh,-2.3%,2.4%,-10.5%,-16.5%,43.8%,11.9%,7.2%,-0.4%,7.1%,0.1%
Rango-impB inh,-4.3%,1.8%,-1.8%,-2.2%,-4.1%,3.4%,-4.1%,-1.6%,3.6%,0.6%
TSHR antagonist,-4.3,-5.0,-110.1*,/,-85.5*,-2.4,0.4,-78.9*,-2.4,31.6
p53 reactivator,-1.9%,19.0%,6.6%,-4.2%,18.6%,11.1%,6.0%,-42.0%,0.3%,-11.0%

11: COc1ccc(CCNC(=O)c2[nH]c(C)c(C(C)=O)c2C)cc1OC
12: CC(=O)c1c(C)[nH]c(C(=O)NCCc2ccccc2)c1C
13: CC(C(=O)O)N1C(=O)/C(=C/c2cccn2C)SC1=S (configuration not stated)
14: CCC(C(=O)O)N1C(=O)/C(=C/c2cccn2C)SC1=S (configuration not stated)
15: CC(C)CNC(=O)c1ccccc1NC(=O)Nc1ccccc1
16: COc1ccccc1C(=O)COC(=O)/C=C/c1ccccc1
17: O=C(/C=C/c1ccccc1)OCC(=O)c1c[nH]c2ccccc12
18: N#Cc1c(C(F)(F)F)cc(-c2ccccc2)nc1SCC(=O)Nc1sc2c(c1C#N)CCC2
19: Cc1ccc(S(=O)(=O)NCCC(=O)Oc2ccc3ccc(=O)oc3c2)cc1
20: CN1C(C(=O)NCc2ccc(OC(F)(F)F)cc2)CC2Cn3c(nc4cc5ccccc5cc43)C21 (configuration not stated)

entry no.,11,12,13,14,15,16,17,18,19,20
Akt phos inh,i,-117.4%*,i,i,-105.4%*,i,i,i,i,i
Rango dissoc inh,-5.5%,-4.5%,2.59µM*,?,0.2%,1.4%,-6.2%,-13.1%,11.6µM*,-6.0%
Rango-impB inh,-0.5%,0.6%,?,?,2.9%,2.0%,-0.6%,3.4%,?,-1.3%
TSHR antagonist,-4.2,-5.1,-7.9,-8.1,-2.1,-92.8*,-2.8,7.8,-0.3,-2.5
p53 reactivator,-0.6%,?,-4.5%,-2.4%,-3.3%,16.8%,4.8%,1.1%,2.3%,0.5%

Overlap with the part before: four compounds, followed by the next part.
17: O=C(/C=C/c1ccccc1)OCC(=O)c1c[nH]c2ccccc12
18: N#Cc1c(C(F)(F)F)cc(-c2ccccc2)nc1SCC(=O)Nc1sc2c(c1C#N)CCC2
19: Cc1ccc(S(=O)(=O)NCCC(=O)Oc2ccc3ccc(=O)oc3c2)cc1
20: CN1C(C(=O)NCc2ccc(OC(F)(F)F)cc2)CC2Cn3c(nc4cc5ccccc5cc43)C21 (configuration not stated)
21: CC(=O)c1cccc(N(C(=O)CNC(=O)c2ccco2)C(C(=O)NC2CCCC2)c2ccncc2)c1 (configuration not stated)
22: CC(=O)c1ccc(N(C(=O)CNC(=O)c2ccco2)C(C(=O)NC2CCCC2)c2ccncc2)cc1 (configuration not stated)
23: COCCN(C(=O)c1ccco1)C(C(=O)NC1CCCC1)c1cccs1 (configuration not stated)
24: CCCNC(=O)C1(C)CCN(Cc2ccc(OC)c3ccccc23)C1 (configuration not stated)
25: CCCc1cc(=O)oc2c(C)c(OCC(=O)Nc3ccc(CN4CCOCC4)cc3)ccc12
26: CN(Cc1ccco1)S(=O)(=O)c1csc(C(N)=O)c1
27: CC(C)CCN(Cc1ccco1)S(=O)(=O)c1csc(C(N)=O)c1
28: Clc1nc(-c2ccccn2)nc2scc(-c3ccccc3)c12
29: O=C(O)c1ccccc1-c1noc(-c2ccccc2F)n1
30: O=[N+]([O-])c1ncccc1OCc1ccc(Cl)c(Cl)c1

entry no.,17,18,19,20,21,22,23,24,25,26,27,28,29,30
Akt phos inh,i,i,i,i,i,i,-91.6%*,i,i,i,i,i,/,i
Rango dissoc inh,-6.2%,-13.1%,11.6µM*,-6.0%,-23.6%,17.6%,20.7%,/,-7.6%,0.3%,-3.8%,33.4%,/,-11.7%
Rango-impB inh,-0.6%,3.4%,?,-1.3%,-1.5%,-0.7%,3.9%,/,1.9%,4.5%,-1.1%,0.9%,/,0.4%
TSHR antagonist,-2.8,7.8,-0.3,-2.5,1.0,-93.2*,-1.4,/,7.5,-138.9*,-14.9,32.8,32.6,24.9
p53 reactivator,4.8%,1.1%,2.3%,0.5%,-2.3%,1.0%,3.8%,/,-5.3%,-4.0%,-0.8%,11.2µM*,/,27.7%

31: Clc1ccc(COc2ccccn2)cc1Cl
32: Cc1ccc(CNc2ccccc2C(=O)O)s1
33: Cn1c(N)c(C(=O)COC(=O)c2cccc(S(=O)(=O)NCc3ccccc3)c2)c(=O)n(C)c1=O
34: Cc1onc(-c2ccccc2)c1C(=O)Nc1ccccc1NC(=O)c1c(-c2ccccc2)noc1C
35: CCCOc1ccccc1NC(=O)c1c(-c2ccccc2)noc1C
36: CCCCOCCCNC(=O)c1c(-c2ccccc2)noc1C
37: NC(=NC1CCCCC1)NS(=O)(=O)c1ccccc1
38: COc1ccc2c(c1)O/C(=C\c1ccco1)C2=O
39: COC(=O)C(C)Oc1ccc2c(c1)O/C(=C\c1ccco1)C2=O (configuration not stated)
40: CCOC(=O)CN1C(=O)S/C(=C/C=C/c2ccc(N(C)C)cc2)C1=O

entry no.,31,32,33,34,35,36,37,38,39,40
Akt phos inh,-122.6%*,i,i,i,i,-121.6%*,i,i,i,i
Rango dissoc inh,-8.5%,1.6%,-17.1%,6.5%,2.7%,0.6%,17.9%,?,20.6µM*,11.8%
Rango-impB inh,0.2%,-0.4%,3.4%,7.4%,58µM*,-0.5%,-0.4%,?,?,5.8µM*
TSHR antagonist,-9.1,6.8,/,-5.3,-15.3,-7.7,4.6,25.0,-4.4,-4.2
p53 reactivator,-1.3%,/,-5.7%,13.3%,4.0%,0.0%,-1.6%,18.7%,3.4%,?

41: CCOC(=O)c1c(C)[nH]c(C(=O)OCC(=O)NC2CCS(=O)(=O)C2)c1C (configuration not stated)
42: COc1ccc2cc(/C=C3\SC(=S)NC3=O)c(N3CCOCC3)nc2c1
43: CN1CCN(c2nc3c(c(=O)[nH]c(=O)n3C)n2Cc2ccccc2)CC1
44: N#CC(C#N)=C1C=CC=CN1/C(=C\c1ccco1)C(=O)c1ccc(Br)cc1
45: Cc1cccc(CN2C(=O)N/C(=C/c3cc(C)n(-c4ccccn4)c3C)C2=O)c1

entry no.,41,42,43,44,45
Akt phos inh,-112.5%*,i,i,i,i
Rango dissoc inh,-15.5%,-11.0%,13.4%,-14.4%,5.17µM*
Rango-impB inh,-5.3%,?,-0.1%,?,?
TSHR antagonist,-3.9,-80.3*,3.2,-91.4*,-2.2
p53 reactivator,2.7%,-1.4%,7.1%,-31.1%,-0.2%
